scFv variants of Ab-14 (heavy chain) against a SARS-CoV-2 spike peptide

Target: peptide PDVDLGDISGINAS, taken from heptad repeat 2 (HR2) of SARS-CoV-2 spike.

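Phage display of a naive human antibody library on the peptide gave the parent. Variants in AAYL49 differ from the parent at up to three CDR positions; double and triple changes were sampled at random. Affinity was read by AlphaSeq, a pooled yeast mating assay with surface-displayed partners. The frequency of each diploid, read from paired DNA barcodes, reflects how well the two displayed proteins bind. Each replicate has its own calibration line, from reference interactions of the BCL2 family. Each pool was mated in three replicate cultures.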

The variants keep the light chain, the linker and the frameworks of Ab-14 (scFv order VH, the linker GGGGSGGGGSGGGGS, VL).
VH: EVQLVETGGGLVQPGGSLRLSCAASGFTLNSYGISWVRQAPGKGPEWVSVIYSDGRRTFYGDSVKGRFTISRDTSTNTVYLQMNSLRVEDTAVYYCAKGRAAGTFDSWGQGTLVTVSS
VL: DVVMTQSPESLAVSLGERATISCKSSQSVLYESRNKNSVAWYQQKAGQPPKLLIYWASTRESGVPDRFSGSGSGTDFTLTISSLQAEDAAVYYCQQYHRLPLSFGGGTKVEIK

Changes read parent residue, position, new residue, counted from the first residue of the VH shown. Kd is apparent (estimated from mating counts) and averaged on the log scale over replicates with a signal. Smaller is tighter. "not detected" marks a missing value. The strain was present, yet no cells mated with the target were sequenced in any replicate, which points to weak or no binding. For reference, the parent read 4.4 nM as the reference entry and 13 µM (one replicate of three) as a member of this library. Nonspecific signal, from three strains lacking the peptide, appeared in 15% of pairings of library AAYL49, centred on 11 µM (5% of these signals below 680 nM); values are not corrected for it. The control count says in how many pairings with the empty strains this scFv gave a signal.

| changes | Kd (apparent) | replicates with signal | signal with controls |
|---|---|---|---|
| R56V+V64C | 42 nM | 3/3 | 1/9 |
| S31R+D62K+A101T | 4.5 µM | 1/3 | 2/9 |
| G33Q+S35M+K65W | 6.0 µM | 1/3 | 2/9 |
| G55Y+G99V+S107G | 2.5 µM | 1/3 | 0/9 |
| Y32E+I34W+S35A | not detected | 0/3 | 1/9 |
| S35L+R100N+T104K | not detected | 0/3 | 1/9 |
| T28V+Y52R+T104Q | 150 µM | 1/3 | 4/9 |
| G33P+S63C+A101Y | 1.3 µM | 2/3 | 2/9 |
| G55A+S63I+A102R | 28 µM | 1/3 | 2/9 |
| S63A+A101S+G103V | 5.6 µM | 1/3 | 2/9 |
| F27S+A101N+G103Q | 1.5 µM | 3/3 | 3/9 |
| D54S+T104F+D106W | 730 µM | 1/3 | 2/9 |
| Y32I+D54W+R57N | not detected | 0/3 | 0/9 |
| T104G+F105A+S107K | 87 nM | 3/3 | 2/9 |
| G33F+T58N+G61Q | not detected | 0/3 | 1/9 |
| Y60E+R100F+S107C | not detected | 0/3 | 0/9 |
| Y32H+R56H | not detected | 0/3 | 0/9 |
| S31V+D62C+S63E | 40 µM | 2/3 | 8/9 |
| G26A+N30G | 16 nM | 3/3 | 2/9 |
| L29V+G33R | 250 µM | 2/3 | 3/9 |
| G33P+G61F+G103T | 150 µM | 2/3 | 2/9 |
| Y32D+R100T+F105G | not detected | 0/3 | 0/9 |
| V50Q+T58S+A101L | 11 µM | 2/3 | 2/9 |
| S53K+G55F+R100Q | 66 µM | 1/3 | 4/9 |
| L29C+Y60I | not detected | 0/3 | 1/9 |
| T28I+I34M+R100F | not detected | 0/3 | 1/9 |
| G26C+Y52S+A101Y | 12 µM | 1/3 | 4/9 |
| G33Y+V64Y+A101D | 13 µM | 2/3 | 1/9 |
| L29D+G33I+D54Q | 9.2 µM | 1/3 | 0/9 |
| L29Q+R56E+G99W | 100 nM | 1/3 | 2/9 |
| I51P+F59S+D62Y | not detected | 0/3 | 2/9 |
| F27I+Y32S+V50H | 45 µM | 1/3 | 3/9 |
| Y32I+V50H+D62Y | 330 nM | 1/3 | 2/9 |
| G55E+G61R | 61 µM | 3/3 | 4/9 |
| F27I+G33D+T58L | 130 nM | 3/3 | 0/9 |
| Y32H+F59G+Y60W | 360 nM | 1/3 | 0/9 |
| S31F+R100P+A102I | not detected | 0/3 | 2/9 |
| T58G+F59A+T104I | 290 nM | 2/3 | 0/9 |
| F59Q+S63P+G99Q | 2.3 µM | 1/3 | 1/9 |
| I34N+G99C+S107F | not detected | 0/3 | 0/9 |
| G33N+Y52S+D106G | 640 nM | 1/3 | 2/9 |
| S31Y+Y32G+F59D | not detected | 0/3 | 0/9 |
| G26E+T58C+A101M | 68 nM | 3/3 | 0/9 |
| G33T+I51L+D54Y | not detected | 0/3 | 0/9 |
| F59W+S63Y | 230 nM | 1/3 | 0/9 |
| Y60M+T104C | not detected | 0/3 | 2/9 |
| L29G+I51T+S63D | not detected | 0/3 | 0/9 |
| Y32A+G55C+D106Y | 33 µM | 2/3 | 4/9 |
| N30Q+S53Q+A101K | 180 nM | 3/3 | 2/9 |
| G26D+S31H+V64D | 2.2 mM | 1/3 | 3/9 |
| L29S+F59R | not detected | 0/3 | 4/9 |
| Y52C+D62R+K65Q | not detected | 0/3 | 0/9 |
| S31Q+V64G+T104P | 1.7 µM | 1/3 | 0/9 |
| R57D+S63Y+K65T | not detected | 0/3 | 0/9 |
| S31A+G55S+D106P | 160 µM | 3/3 | 5/9 |
| Y32R+S53G+K65C | 3.1 µM | 1/3 | 4/9 |
| F59D+Y60A+T104Q | not detected | 0/3 | 0/9 |
| S53I+R57P+A102S | not detected | 0/3 | 0/9 |
| L29Y+T104W+S107I | not detected | 0/3 | 0/9 |
| F27D+S63F+R100D | 280 nM | 2/3 | 0/9 |

Excerpt, the first 7 entries:

changes	Kd (apparent)	replicates with signal	signal with controls
R56V+V64C	42 nM	3/3	1/9
S31R+D62K+A101T	4.5 µM	1/3	2/9
G33Q+S35M+K65W	6.0 µM	1/3	2/9
G55Y+G99V+S107G	2.5 µM	1/3	0/9
Y32E+I34W+S35A	not detected	0/3	1/9
S35L+R100N+T104K	not detected	0/3	1/9
T28V+Y52R+T104Q	150 µM	1/3	4/9

Source: Engelhart et al. 2022 (doi:10.1038/s41597-022-01779-4), MIT Lincoln Laboratory and A-Alpha Bio; data file from the FLAb repository.